Data from US20070036775A1, “Method of modulating or examining Ku70 levels in cells” (priority 2001, published 2007).

Tested on: Cytochrome c
Assay: Cytochrome c release from mitochondria (subcellular fractionation, Western blot)
Format: cell-based
Method: FIG. 2A: Ku70 suppressed STS-induced apoptosis in Hela cells. Hela cells (10^6 cells) were transfected with 0.5 μg pEGFP and 1.0 μg pCMV-2B (Vector), pCMV-2B-Ku70 (Ku70 wt), pCMV-2B-Ku701-535 (Ku701-535), or pCMV-2B-Ku70536-609 (Ku70536-609). One day following transfection, cells were treated with 200 nM STS and the number of apoptotic cells was counted as described in FIG. 1 after 24 hours of STS treatment. FIG. 2B: Ku70 suppressed UVC-induced apoptosis. HEK293T cells (10^6 cells) were transfected with 0.5 μg PEGFP and 1.0 μg pCMV-2B (Vector), pCMV-2B-Ku70 wt (Ku70 wt), or pCMV-2B-Ku70536-609 (Ku70536-609). One day following transfection, cells were exposed to 200 J/m^2 of UVC-irradiation. After 24 hours, apoptotic cells were counted as described in FIG. 1. FIG. 2C: Ku70 suppressed Bax-induced Caspase activation. […] Caspase activity was measured one day following transfection as described in Experimental Procedure. […] Caspase activity was assessed as described in Experimental Procedure. […] Cytochrome c released from mitochondria into cytosol was analyzed by subcellular fractionation followed by Western blot analysis of Cytochrome c (Cyt c) as well as mitochondrial FoF1-ATP-synthase subunit F1α (F1α) as described in Experimental Procedure. […]

Substance: Ku70: human full length Ku70, 70 kDa subunit of Ku-complex (609 amino acids), expressed from pCMV-2B plasmid
- Cytochrome c release from mitochondria induced by Bax-expression (HEK293T cells): attenuated
- Cytochrome c release from mitochondria in STS-treated HeLa cells and UVC-irradiated HEK293T cells (data not shown): blocked Cytochrome c release from mitochondria
